Screening results: PubChem, National Center for Advancing Translational Sciences (NCATS)
miR-21 reporter = raises the signal of a miR-21 reporter; Potency, µM (doses to about 38.3 µM); HeLa miR-21 FLuc reporter, luciferase, 48 h; AID 2288; 340,000 tested, under 10 active; active = well fitted rising curve with a large enough effect; inconclusive = small, poorly fitted or top-dose-only effect; inactive = no such curve, though single readings can be large or run the other way;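 further: miR-21 action dims this reporter so a rising signal means less miR-21 action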
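HeLa cells stably expressing CMV-driven firefly luciferase with a downstream miR-21 binding sequence, endogenously expressing miR-21, were treated with titrations (up to about 40uM final) for 48 hours at 37 degree Celsius. Luciferase luminescence was read after lysis.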
TDP1 cell noCPT = qHTS for Inhibitors of human tyrosyl-DNA phosphodiesterase 1 (TDP1): qHTS in cells in absence of CPT; actives 15% (n = 420,000); DT40 Tdp1-/- hTDP1 cells, no CPT, ATP luminescence, 48 h; Potency, µM (doses to about 46.2 µM), actives largely listed as inhibitors; note: nearly all actives have a fitted effect of over 55% in size
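No-CPT arm: Tdp1-/-;hTDP1 DT40 cells (400/well) plus compounds, incubated ≥48 hr at 37 °C. Readout CellTiter-Glo luminescence.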
TDP1 block = blocks human tyrosyl-DNA phosphodiesterase 1; Q9NUW8; recombinant TDP1, AlphaScreen DNA substrate cleavage; Potency, µM (titrated, usually from 130 µM), most hits filed as inhibitors; actives 0.28% (n = 350,000); AID 485290; note: nearly all actives have a fitted effect of over 40% in size
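E. coli-derived human Tdp1, 1 nM final. Cpd preinc 15 min RT; substrate 15 nM final, 5 min RT; AS bead mix 10 ug/ml final, 10 min RT. Signal loss = tyrosine-FITC cleavage. No-enzyme wells = max signal.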
DT40 TDP1 CPT = growth inhibition of DT40 Tdp1-/-;hTDP1 cells with camptothecin (screen for TDP1 inhibitors); actives 12% (n = 420,000); chicken DT40 Tdp1-/-;hTDP1 cells + 20 nM CPT, ATP luminescence, 48 h; Potency, µM (series often up to 46.2 µM), hits mostly inhibitors; note: nearly all actives have a fitted effect of over 55% in size
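Cell growth measured by CellTiter-Glo luminescence after a minimum 48 h, 37 C compound exposure with 20 nM CPT in Tdp1-knockout DT40 cells stably expressing hTDP1, seeded 400/well; qHTS titration format.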
uPA surface inh = cell surface uPA generation inhibition | actives 0.31% (n = 330,000) | cell surface uPA generation assay, qHTS | Potency, µM (top dose mostly 38.3 µM), hits mostly inhibitors; active = well fitted inhibition curve with a large enough effect; inconclusive = small, poorly fitted or top-dose-only effect; inactive = no such curve, though single readings can be large or run the other way; tested in mouse RAW 264.7 cells; note: nearly all actives have a fitted effect of over 55% in size
Of the large screens only hits and unclear results are named; the others gave an inactive call. This is a sample that favours compounds with a hit; in the whole collection about 16% have one here. Unless noted, calls come from the whole dose curve; as a rule, active = well fitted curve in the direction sought with a large enough effect; inconclusive = small, poorly fitted or top-dose-only effect, or another doubt; inactive = no such curve, though single readings can be large; an effect the other way counts as inactive or inconclusive.

COc1cccc(-c2nc(CCl)cs2)c1OC	TDP1 cell noCPT 6.5µM, DT40 TDP1 CPT 2.3µM (no result: uPA surface inh)
COc1cccc(-c2nc(CC(=O)O)cs2)c1OC	none
CCOc1ccc(-c2nc(CCl)cs2)cc1OC	TDP1 cell noCPT 13µM, DT40 TDP1 CPT 10µM (no result: uPA surface inh)
O=C(NNS(=O)(=O)c1ccc(F)cc1)c1ccc(O)cc1	none
COc1ccc(CCN(C)Cc2ccc(OCc3ccccc3)c(OC)c2)cc1OC	TDP1 cell noCPT inconclusive, DT40 TDP1 CPT inconclusive (no result: uPA surface inh)
COc1ccc(CCN(C)C2CC(=O)N(c3ccccc3)C2=O)cc1OC (centres undefined)	TDP1 cell noCPT inconclusive, DT40 TDP1 CPT 9.2µM
COc1ccc(CCN(C)Cc2ccc(OC)c(OCc3ccccc3)c2)cc1OC	TDP1 cell noCPT 23µM, DT40 TDP1 CPT inconclusive (no result: uPA surface inh)
O=C(O)c1cc(NC(=O)c2ccc(Br)cc2)cc(NC(=O)c2ccc(Br)cc2)c1	none
COc1ccc(Cl)cc1NC(=O)CSC1=Nc2ccccc2C2=NC(CC(=O)NCc3ccc4c(c3)OCO4)C(=O)N12 (centres undefined)	TDP1 cell noCPT inconclusive, DT40 TDP1 CPT inconclusive (no result: uPA surface inh)
O=C(CC1N=C2c3ccccc3N=C(SCC(=O)Nc3cccc(Cl)c3)N2C1=O)NCc1cccs1 (centres undefined)	miR-21 reporter inconclusive, TDP1 cell noCPT 23µM, DT40 TDP1 CPT inconclusive (no result: uPA surface inh)
O=C(CC1N=C2c3ccccc3N=C(SCC(=O)Nc3cccc(C(F)(F)F)c3)N2C1=O)NCc1cccs1 (centres undefined)	TDP1 cell noCPT inconclusive, DT40 TDP1 CPT inconclusive (no result: uPA surface inh)
COc1ccc(Cl)cc1NC(=O)CSC1=Nc2ccccc2C2=NC(CC(=O)NCc3cccs3)C(=O)N12 (centres undefined)	TDP1 cell noCPT 23µM, DT40 TDP1 CPT inconclusive (no result: uPA surface inh)
CCOC(=O)C1CCN(S(=O)(=O)c2ccc3c(c2)CC(=O)N3)CC1	none (no result: TDP1 block)
Cc1cc(C)c(CSc2ncc(-c3ccc([N+](=O)[O-])cc3)[nH]2)c(C)c1	TDP1 cell noCPT 10µM, DT40 TDP1 CPT 16µM
O=[N+]([O-])c1ccc(-c2cnc(SCc3ccccc3Cl)[nH]2)cc1	none
Cc1ccc(NC(=O)c2ncn(CCCN3CCN(Cc4cccc5ccccc45)CC3)n2)cc1C	TDP1 cell noCPT 13µM, DT40 TDP1 CPT 21µM, uPA surface inh inconclusive (no result: miR-21 reporter, TDP1 block)
Cc1ccc(NC(=O)c2ncn(CC(=O)N[C@H](C)c3cccc4ccccc34)n2)cc1C	TDP1 cell noCPT inconclusive, DT40 TDP1 CPT inconclusive, uPA surface inh inconclusive (no result: miR-21 reporter)
COc1cccc(CN(C)CCCn2cnc(C(=O)Nc3ccc(C)c(C)c3)n2)c1	TDP1 cell noCPT inconclusive, DT40 TDP1 CPT 21µM (no result: miR-21 reporter, TDP1 block)
Cc1ccc(NC(=O)Cn2cnc(C(=O)Nc3ccc(C)c(C)c3)n2)cc1C	none (no result: miR-21 reporter)
COc1ccc(CN(C)C(=O)Cn2cnc(C(=O)Nc3ccc(C)c(C)c3)n2)cc1OC	TDP1 cell noCPT inconclusive, DT40 TDP1 CPT 18µM (no result: miR-21 reporter)
CC(C)c1ccccc1NC(=O)Nc1nnc([C@H]2C[C@H](O)[C@@H](CO)O2)s1	none (no result: miR-21 reporter, TDP1 block, uPA surface inh)
CN(C)c1ccc2c(c1[N+](=O)[O-])Cc1ccccc1-2	none (no result: miR-21 reporter, TDP1 block)
CCOC(=O)c1c(C)[nH]c(C)c1C(=O)CSc1nc2ccccc2n1CCC#N	none
NC(=O)CSc1nc2ccccc2c(=O)n1-c1ccccc1	none (no result: TDP1 block)
N#CCCn1c(SCC(=O)c2c[nH]c3ccccc23)nc2ccccc21	TDP1 cell noCPT 18µM, DT40 TDP1 CPT 23µM
O=C(CSc1nc2ccccc2c(=O)n1-c1ccccc1)c1c[nH]c2ccccc12	TDP1 cell noCPT 6.5µM, DT40 TDP1 CPT 6.5µM
O=C(CSc1nc2ccccc2[nH]1)Nc1ccc2c(c1)OCCO2	DT40 TDP1 CPT inconclusive
O=C(CSc1nc(-c2cccc(F)c2)[nH]c1-c1ccccc1)Nc1ccc2c(c1)OCCO2	miR-21 reporter inconclusive, TDP1 cell noCPT 12µM, DT40 TDP1 CPT 15µM (no result: uPA surface inh)
Cc1cccc(-c2nc(SCC(=O)Nc3ccc4c(c3)OCCO4)c(-c3ccccc3)[nH]2)c1	miR-21 reporter inconclusive, TDP1 cell noCPT 21µM, DT40 TDP1 CPT inconclusive (no result: uPA surface inh)
Cc1ccc2nc(SCC(=O)Nc3ccc4c(c3)OCCO4)[nH]c2c1	TDP1 cell noCPT inconclusive
O=C(CCCc1ccccc1)Nc1cccc2c1CCCC2	TDP1 cell noCPT inconclusive
O=C(CCS(=O)(=O)c1ccccc1)Nc1nc(-c2cccs2)cs1	TDP1 cell noCPT 21µM, DT40 TDP1 CPT inconclusive, uPA surface inh inconclusive
CC(C)(C)c1csc(NC(=O)CCS(=O)(=O)c2ccc(F)cc2)n1	TDP1 cell noCPT 8.2µM, DT40 TDP1 CPT 8.2µM (no result: miR-21 reporter, TDP1 block, uPA surface inh)
O=C(CCS(=O)(=O)c1ccc(F)cc1)Nc1nc(-c2ccncc2)cs1	TDP1 cell noCPT 9.2µM, DT40 TDP1 CPT 13µM, uPA surface inh inconclusive
CC(C)CN1C(=O)CSCC1(C)C(=O)Nc1ccc2c(c1)OCCO2 (centres undefined)	none (no result: miR-21 reporter, TDP1 block, uPA surface inh)
CCOc1cc(C2C(C(=O)OC)=C(C)NC3=C2C(=O)c2ccccc23)ccc1OC (centres undefined)	TDP1 cell noCPT 21µM, DT40 TDP1 CPT inconclusive (no result: uPA surface inh)
CCOc1cc(C2C(C(=O)OC)=C(C)NC3=C2C(=O)c2ccccc23)cc(Br)c1OCC (centres undefined)	TDP1 cell noCPT 5.2µM, DT40 TDP1 CPT inconclusive (no result: TDP1 block, uPA surface inh)
C#CCOc1ccc(C2C(C(=O)OC)=C(C)NC3=C2C(=O)c2ccccc23)cc1OCC (centres undefined)	TDP1 cell noCPT inconclusive, DT40 TDP1 CPT inconclusive (no result: TDP1 block, uPA surface inh)
O=S(=O)(c1ccc2[nH]c3c(c2c1)CCCCC3)N1CCN(c2cccc(Cl)c2)CC1	TDP1 cell noCPT 12µM, DT40 TDP1 CPT 18µM (no result: uPA surface inh)
